## Yeast mating assay B: variants of the scFv Ab-14

From the AlphaSeq antibody data of Li et al. 2023 (doi:10.1038/s41467-023-39022-2), copy in the FLAb collection.

Binding partner: SARS-CoV-2 spike HR2 peptide, sequence PDVDLGDISGINAS.

Parent: Ab-14, a human scFv built as VH, the linker GGGGSGGGGSGGGGS, VL. Only the CDRs of the light chain vary.
VH: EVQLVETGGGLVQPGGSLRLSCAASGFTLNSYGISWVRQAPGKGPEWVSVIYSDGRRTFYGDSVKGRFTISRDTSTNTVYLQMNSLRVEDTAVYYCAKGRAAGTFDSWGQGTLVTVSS
VL: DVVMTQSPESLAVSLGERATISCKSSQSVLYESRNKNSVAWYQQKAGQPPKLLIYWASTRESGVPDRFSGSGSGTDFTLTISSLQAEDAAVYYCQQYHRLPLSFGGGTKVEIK

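The parent was found by panning a naive human phage display library on the peptide. The variants were designed computationally from a first round of random CDR variants and then made and measured. Group labels follow the data file (Ctrl: baseline library sampled from a position-specific scoring matrix, with some repeated check sequences; GP: Gaussian process model; HC: hill climbing; a sequence that several methods proposed may carry one label only). Affinity was read by AlphaSeq, a pooled yeast mating assay with surface-displayed partners. Mating (16 h, 30 °C) was followed by selection of diploids and sequencing of their barcodes. Read counts were normalised to the haploid input and turned into Kd by a linear fit to BCL2-family pairs of known affinity, for each replicate. The assay was run in six technical replicates.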

Each variant is given by its three light chain CDRs, as the data file delimits them; those of the parent are KSSQSVLYESRNKNSVA, WASTRES, QQYHRLPLS.
Values are log10 of the apparent Kd in nM; lower means stronger binding.
Replicates are averaged; those with no signal do not enter the mean.
"n.d." means that the variant was in the library but no mating with the target was seen in that replicate; the authors take this as a sign of poor binding, and no number exists.
The parent sequence was in this pool as ten entries: three were never detected, three once, and four in most replicates, with averages from 0.34 to 2.37.

CDR-L1,CDR-L2,CDR-L3,group,"log10 Kd, replicates","log10 Kd (nM), mean",empty controls
KSSQSVLYESRNKNSVA,WASTREW,QQYSRLPLS,Ctrl,n.d. n.d. n.d. n.d. n.d. n.d.,n.d.,0 of 18
KSPTSVTYESRLKNSVA,NASTRES,QQYHRLPLE,Ctrl,1.47 1.30 1.80 1.31 1.22 1.56,1.44,1 of 18 (2.76)
KSSQNVDYSSRNKNSVA,SASTRES,QQYHRLPLS,Ctrl,0.30 0.21 0.18 0.16 0.12 0.51,0.25,2 of 18 (2.01)
KSSQSDLEESRNKNSVA,WASTRES,QQYRRLPLS,Ctrl,n.d. n.d. 0.56 0.97 1.84 1.95,1.33,0 of 18
KSSQGLLYESRNKNSVA,WASTRES,QQYHRLPLS,Ctrl,1.05 1.87 2.16 1.80 1.92 1.79,1.76,2 of 18 (2.09)
KSSQDVLYESRNKNHVA,WASTRES,QQYHRLPLS,Ctrl,n.d. 1.68 n.d. n.d. n.d. n.d.,1.68,0 of 18
KISQSVLYESSNKNSVA,SADTRES,QQYHRLPLS,Ctrl,0.36 0.60 0.16 0.65 0.72 0.53,0.50,0 of 18
KSSQSVLYESRNKNSVA,GASCRES,QQYDSLPLS,Ctrl,2.42 2.19 1.61 2.30 1.81 2.49,2.14,2 of 18 (2.43)
KSSQSVLYESRNKNSVA,NASTRMS,QQYHRLPLS,Ctrl+GP_HC,0.61 0.48 0.33 0.71 0.23 1.00; 0.62 0.46 0.00 0.31 -0.09 0.57,0.43,1 of 36 (3.37)
KSSQSVLYESRVKNSVA,GASTREK,QQYWRLPLS,Ctrl,n.d. 2.03 0.23 1.27 0.65 2.54,1.34,0 of 18
KSSQSVLYESRMKNSVA,WASTRES,QQYFRLPLS,Ctrl,n.d. 1.54 n.d. 2.08 0.61 2.04,1.57,0 of 18
KSRQSVLYEDRNKNSVA,WASTRES,QQKHRLPLS,Ctrl,n.d. n.d. n.d. n.d. n.d. 3.83,3.83,0 of 18
KSHQSVYYESRNKNSVA,WASTRES,QQYHRLPLS,Ctrl,2.96 n.d. n.d. 2.02 2.73 n.d.,2.57,1 of 18 (2.01)
KSSTSVLYESRNKNSIA,WASTRES,QQYNRLPLS,Ctrl,n.d. n.d. 3.35 n.d. n.d. 1.80,2.58,0 of 18
KSSQSELYESRNVNSVA,AASTRES,QTYHRAPLS,Ctrl,1.16 n.d. n.d. n.d. n.d. n.d.,1.16,0 of 18
KFSQSVFYESHNKNSVA,WASTCES,QQYHRLPLS,Ctrl,n.d. n.d. n.d. n.d. n.d. n.d.,n.d.,0 of 18
MSSQSVLYQSRNKNSVA,WASTRES,QQYHHLPLS,Ctrl,n.d. n.d. n.d. n.d. n.d. n.d.,n.d.,0 of 18
KSSESVAQESRNKNSVA,PASQRES,QQYHRLPLS,Ctrl,n.d. n.d. n.d. n.d. n.d. n.d.,n.d.,0 of 18
KLSQSVLYESRNKNSVA,WASTREN,QQYHRLPLS,Ctrl,-0.08 0.04 -0.07 -0.29 -0.19 -0.06,-0.11,0 of 18
KSSQSYGYESRNKNSVA,NASTRES,QQYHRLPLS,Ctrl,-0.20 -0.09 -0.09 -0.47 -0.37 -0.30,-0.25,2 of 18 (2.06)
KSSQMVLYESRNKYSVA,WASTRES,QQYHRLPLS,Ctrl,n.d. n.d. n.d. n.d. n.d. n.d.,n.d.,0 of 18
KSSQSVLYESRNGNHVA,WASTRES,QQYERLPLS,Ctrl,n.d. n.d. n.d. n.d. n.d. n.d.,n.d.,0 of 18
KSSQSVWYESRNKNSVA,HASTRES,QQYHDLPLS,Ctrl,1.75 2.28 2.30 2.02 2.52 1.97,2.14,5 of 18 (3.34)
KSSQSDLYESRNKNSVA,WASTRES,QQYHRLPGS,Ctrl,n.d. n.d. n.d. n.d. n.d. n.d.,n.d.,0 of 18
KSSQSWSYESRNKNSVA,WASTRED,QQYHRLPLS,Ctrl,0.90 n.d. 3.07 n.d. 1.83 1.50,1.82,1 of 18 (2.37)
KSSQWGLEESSNYNSVA,WASTRES,QQYHKLPLS,Ctrl,n.d. 2.62 n.d. 2.21 2.58 n.d.,2.47,0 of 18
KSSQSVLYESRNGNSVA,WASTRDS,QQYHGLPLS,Ctrl,n.d. n.d. n.d. 2.16 n.d. n.d.,2.16,0 of 18
KSSYSVLYESRNKNSVA,HASTRES,QQYHRLPLS,Ctrl,0.27 0.34 0.08 -0.05 -0.14 0.24,0.12,2 of 18 (2.91)
KSSQSVLGESRNKNSVA,WASTREK,QQYHRLPLF,Ctrl,1.77 1.90 1.75 1.91 2.06 1.94,1.89,5 of 18 (3.11)
KSSQSVLMESRNKNSVA,SASTRES,QQYHRLPLS,Ctrl,1.45 0.99 1.34 0.93 1.26 1.87,1.31,1 of 18 (1.94)
KVSQSVLRESRNKNSVA,WASTRES,QQYHRLPLS,Ctrl,0.88 1.07 0.75 0.81 0.53 0.73,0.80,1 of 18 (3.55)
KSSQSVLYESRNKNSVA,WASTRES,QQYHYLPLS,Ctrl,n.d. n.d. n.d. n.d. n.d. n.d.,n.d.,0 of 18
KSSQSVLYEGQNKNSVA,WASTRES,QFYHRLPDS,Ctrl,n.d. n.d. n.d. n.d. n.d. n.d.,n.d.,0 of 18
KQSQSVLYESQNFNSVA,WASTRES,QQYHRLPLS,Ctrl,n.d. n.d. n.d. n.d. n.d. n.d.,n.d.,0 of 18

For reference, 2 entries of the list once more:

CDR-L1,CDR-L2,CDR-L3,group,"log10 Kd, replicates","log10 Kd (nM), mean",empty controls
KSSQSVLYESRNKNSVA,NASTRMS,QQYHRLPLS,Ctrl+GP_HC,0.61 0.48 0.33 0.71 0.23 1.00; 0.62 0.46 0.00 0.31 -0.09 0.57,0.43,1 of 36 (3.37)
KSSQSWSYESRNKNSVA,WASTRED,QQYHRLPLS,Ctrl,0.90 n.d. 3.07 n.d. 1.83 1.50,1.82,1 of 18 (2.37)

The authors averaged sequences with at least three values out of six and counted those with two or fewer as poor binders.
Three control strains display no target. For all light chain designs, 4% of the pairings with them gave a signal, with a median of 2.64 and one signal in twenty below 1.59, so weak values seen in few replicates may be background. The control count says in how many pairings with the empty strains this scFv gave a signal, with their mean in brackets.
Values of this round are not directly comparable with the first-round values of the same sequences.
Some sequences occur more than once in the pool; their replicates are listed entry by entry, parted by semicolons.